## AlphaSeq binding of Ab-95 light chain variants to a spike HR2 peptide

Source: Engelhart et al. 2022 (doi:10.1038/s41597-022-01779-4), MIT Lincoln Laboratory and A-Alpha Bio; data file from the FLAb repository.

Antigen: PDVDLGDISGINAS, a 14-residue peptide of the SARS-CoV-2 spike HR2 region.

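Phage display of a naive human antibody library on the peptide gave the parent. Library AAYL52 holds single substitutions and randomly drawn double and triple substitutions in the CDRs. In AlphaSeq, yeast of one mating type display the scFv and yeast of the other type display the target. Pairs that bind mate more often; barcode pairs of the diploids are counted by sequencing. Read counts were normalised to the haploid input and turned into Kd by a linear fit to BCL2-family pairs of known affinity, for each replicate. Mating was done three times.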

Ab-95 is the parent antibody, in scFv form: VH, then three GGGGS repeats, then VL. The heavy chain is unchanged in all variants.
VH: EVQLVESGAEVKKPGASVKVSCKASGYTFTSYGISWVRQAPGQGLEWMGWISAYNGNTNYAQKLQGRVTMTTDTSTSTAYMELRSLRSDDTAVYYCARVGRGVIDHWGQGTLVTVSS
VL: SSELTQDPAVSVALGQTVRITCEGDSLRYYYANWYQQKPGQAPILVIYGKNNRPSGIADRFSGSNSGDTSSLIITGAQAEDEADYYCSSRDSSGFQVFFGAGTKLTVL

Variants are written as CDR1, CDR2 and CDR3 of the light chain (limits as in the source). Parent: EGDSLRYYYAN, GKNNRPS, SSRDSSGFQVF. Values are log10 of the apparent Kd in nM; lower means stronger binding. An entry "ND" has no value in the source: the pair was not observed among the diploids in that replicate. This suggests poor binding but is not conclusive. Three control strains display no target. For library AAYL52, 28% of the pairings with them gave a signal, with a median of 3.91 and one signal in twenty below 2.90, so weak values seen in few replicates may be background. The control count says in how many pairings with the empty strains this scFv gave a signal, with their mean in brackets. Parent in this assay: reference entry 2.31, copy in this library 2.25.

| # | CDR-L1 | CDR-L2 | CDR-L3 | log10 Kd (nM) by replicate | signal with controls |
|---|---|---|---|---|---|
| 1 | EGDSLRYYYAN | WKNNRPS | SSYDSSGFTVF | 3.98 ND ND | 3/9 (3.78) |
| 2 | CGDWLVYYYAN | GKNNRPS | SSRDSSGFQVF | 3.73 5.26 ND | 5/9 (4.27) |
| 3 | EGDSLRYYIAN | GENNRPS | SSRDSSGFMVF | 2.56 2.53 2.23 | 0/9 |
| 4 | EGDSLRCYYAN | GKNNRPS | SSLDSSRFQVF | ND ND ND | 0/9 |
| 5 | EGDSLRYYYCN | GKRYRPS | SSRDSSGFQVF | 4.26 4.29 ND | 2/9 (3.66) |
| 6 | EGDSPRYAYAN | WKNNRPS | SSRDSSGFQVF | ND ND ND | 1/9 (3.58) |
| 7 | EGDSLRVAYAN | GKNNRPA | SSRDSSGFQVF | 1.17 1.05 0.58 | 6/9 (4.24) |
| 8 | EGDSLRYGYAT | GKNNRPS | SSRDSSGRQVF | 2.31 2.19 1.92 | 1/9 (2.45) |
| 9 | EGDSLRYYYAN | GDNNRPS | SSRDSSGFQAF | 3.78 4.29 3.41 | 2/9 (3.09) |
| 10 | EGDSLRYYYQN | GKNNRPS | SSRDSSGFQHE | 3.47 ND ND | 0/9 |
| 11 | EGDSLRYYYAN | GKNNRPS | WSRDSSGFGVD | 2.30 3.13 3.44 | 4/9 (3.33) |
| 12 | KGDSLRYYYAN | QKNNRPV | SSRDSSGFQVF | 3.30 2.60 3.04 | 1/9 (4.26) |
| 13 | EGDSLWYYYAN | GKNNRPS | NSRDSSGFAVF | 4.03 5.09 ND | 1/9 (3.96) |
| 14 | EFDSLRYYYAN | GVNNRPS | SSRDSSGFQVF | 3.89 3.93 3.20 | 5/9 (4.00) |
| 15 | EGDSLRYYYAN | VKNNRPS | SSVDSSGFQVP | ND 4.58 3.25 | 0/9 |
| 16 | EGDSLRYYYAN | GKMWRPS | SSRDSSGFQVF | 3.91 ND ND | 1/9 (3.35) |
| 17 | EGDSLRYYYAN | GKNNRQS | SSRDTSGFQVF | 3.05 2.64 2.60 | 3/9 (4.87) |
| 18 | EYDSLRYYDAN | GKNNRPS | SCRDSSGFQVF | 1.84 1.82 1.57 | 3/9 (4.29) |
| 19 | HGDSLRYYYAN | GKNNRPS | LSGDSSGFQVF | 4.40 3.26 ND | 3/9 (3.94) |
| 20 | EGDSLRYYYAN | GKNARPS | SNRLSSGFQVF | 3.25 5.35 2.28 | 0/9 |
| 21 | EADNLRYYYAN | GKNNCPS | SSRDSSGFQVF | 4.12 ND 3.41 | 2/9 (4.43) |
| 22 | EGDSTRYYYAN | GKNNRPS | VSRDSSGFQVF | ND ND 4.04 | 4/9 (4.51) |
| 23 | EGDSLRYYYMD | GKNNRPS | SSRDSSGFQVF | ND ND ND | 1/9 (1.96) |
| 24 | EGDSLRHYYTN | GKNNRPK | SSRDSSGFQVF | 3.24 2.74 2.50 | 3/9 (4.10) |
| 25 | EGDSLRYYYAN | GKNNRPS | SSHDSSGFQVA | 3.42 2.75 ND | 1/9 (3.65) |
| 26 | EGDSLRYYYAQ | GKNNRPW | SSRTSSGFQVF | 4.04 3.57 ND | 5/9 (3.93) |
| 27 | EGDSLRYEYSN | GKNNRFS | SSRDSSGFQVF | 3.91 2.98 ND | 0/9 |
| 28 | ESDSLRTYYAN | GNNNRPS | SSRDSSGFQVF | 2.48 2.53 2.28 | 3/9 (3.17) |
| 29 | EGDSLRYSYAN | GKNNRPS | SSRDSSHFHVF | 1.81 1.75 1.26 | 5/9 (4.22) |
| 30 | EGDSLREYYAN | GWANRPS | SSRDSSGFQVF | 4.36 4.32 ND | 2/9 (3.61) |
| 31 | EGDSLRYQYAN | GKNNRPS | SSRDLSGFYVF | 2.92 1.68 ND | 0/9 |
| 32 | EEDSLRYYYAN | GKNSRPS | SSRDSSGFLVF | 3.86 ND ND | 3/9 (3.97) |
| 33 | EGDSKRYYYAN | GKVNRPC | SSRDSSGFQVF | ND 4.27 4.06 | 2/9 (4.37) |
| 34 | EGDSKRYYYAN | GKNKLPS | SSRDSSGFQVF | 3.44 ND ND | 1/9 (3.51) |
| 35 | EGNSLRYYYAN | GKNNRPS | SSRDSSCFQDF | 4.24 3.57 4.13 | 0/9 |
| 36 | EGDSLRYEYAN | GKNNEPS | VSRDSSGFQVF | 3.70 ND 3.58 | 4/9 (3.79) |
| 37 | EGDSDRYYYAN | GKLNRPS | SSRDSSGIQVF | 4.84 5.21 ND | 3/9 (3.71) |
| 38 | EGDSLRYYYAN | GQNNRPS | SSRDSYGEQVF | 3.21 2.25 3.08 | 3/9 (4.61) |
| 39 | EGDSLRYYYAD | GKNNRPS | SSRLSSGDQVF | ND ND ND | 0/9 |
| 40 | EGDSLRYYYVN | GKNNRPM | NSRDSSGFQVF | 3.41 2.97 3.30 | 3/9 (3.70) |
| 41 | EGDSLRYYYTN | GKNNRDS | SSRYSSGFQVF | 3.80 3.33 3.13 | 1/9 (4.40) |
| 42 | EEDSLRYYYAN | GKNNRPS | SSRDEQGFQVF | ND ND ND | 2/9 (4.55) |
| 43 | EGDSLRYCYAN | GKNLRPS | SSRDSSGHQVF | 2.72 2.53 2.10 | 6/9 (3.26) |
| 44 | EGDSLRYYYAP | GKNNRPN | SSRMSSGFQVF | ND ND 4.10 | 1/9 (4.76) |
| 45 | EGDSLRYYYAN | GKNKRPS | SSRISSGFQVW | ND ND 2.83 | 3/9 (3.36) |
| 46 | EGDSLRYYYNN | GKNNRPS | SSRDSSGFCVF | 3.48 3.34 3.48 | 6/9 (3.68) |

4 of these entries, quoted again:

{"CDR-L1": "EGDSLREYYAN", "CDR-L2": "GWANRPS", "CDR-L3": "SSRDSSGFQVF", "log10 Kd (nM) by replicate": "4.36 4.32 ND", "signal with controls": "2/9 (3.61)"}
{"CDR-L1": "EGDSLRYYYVN", "CDR-L2": "GKNNRPM", "CDR-L3": "NSRDSSGFQVF", "log10 Kd (nM) by replicate": "3.41 2.97 3.30", "signal with controls": "3/9 (3.70)"}
{"CDR-L1": "ESDSLRTYYAN", "CDR-L2": "GNNNRPS", "CDR-L3": "SSRDSSGFQVF", "log10 Kd (nM) by replicate": "2.48 2.53 2.28", "signal with controls": "3/9 (3.17)"}
{"CDR-L1": "EGDSKRYYYAN", "CDR-L2": "GKVNRPC", "CDR-L3": "SSRDSSGFQVF", "log10 Kd (nM) by replicate": "ND 4.27 4.06", "signal with controls": "2/9 (4.37)"}